Earlier results, collected in patent US10226455B2 (priority 2014, dated 2019).

Conditions: after administration; cited from earlier work

Substance: ivermectin
- time to maximal tissue absorption: 3 to 5 h
